“And” between values parts separate entries of the source, which are not always exact repeats. Equal values may be shown once. Read-outs that look alike come from different tables or passages of the source.
Molecular target: T1, α2 adrenoceptor (Rattus norvegicus, UniProt P22909)
T1 construct: Vas deferens tissue from male Wistar rats; from tissue; host or cells: isolated vas deferens of male Wistar rats
Assay: α2-mediated norepinephrine release / clonidine antagonism in the stimulated rat vas deferens model
Set-up: species or system male Wistar rats
Conditions: duplicate measurements, read-out: pA2 (converted)
Description: The effect upon α2 -stimulated norepinephrine release of R(+)-terazosin and the S(-)-enantiomer and racemic compound were evaluated in the stimulated rat vas deferens model. Vas deferens tissue from male Wistar rats was cleaned of extraneous tissue and mounted between platinum stimulating electrodes and suspended in a tissue bath. The tissues were stimulated transmurally until the preparation stabilized, generally after about 60-80 minutes. After the twitch response became constant, a stimulus was applied at a frequency of 0.1 Hz for the duration of the dose-responsestudy.
Clonidine was used as a control for inhibiting the twitch response, with 10 minute contact times at increasing doses until the stimulated response was attenuated to zero. The stimulus was then reduced to once every five minutes and the tissue washed until the twitch response was restored. After this, the 0.1 Hz signal was again applied and clonidine was administered together with test compound. All responses were calculated as percent reduction in the twitch response.
(The pA2 values is the negative logarithm of the equilibrium dissociation constant for the antagonist-receptor complex, calculated from pharmacological functional data, and is a measure of the affinity of the antagonist at the particular receptor.)

By UniProt entry, the sequences of proteins in these tests, tags left out.
UniProt P22909, whole entry: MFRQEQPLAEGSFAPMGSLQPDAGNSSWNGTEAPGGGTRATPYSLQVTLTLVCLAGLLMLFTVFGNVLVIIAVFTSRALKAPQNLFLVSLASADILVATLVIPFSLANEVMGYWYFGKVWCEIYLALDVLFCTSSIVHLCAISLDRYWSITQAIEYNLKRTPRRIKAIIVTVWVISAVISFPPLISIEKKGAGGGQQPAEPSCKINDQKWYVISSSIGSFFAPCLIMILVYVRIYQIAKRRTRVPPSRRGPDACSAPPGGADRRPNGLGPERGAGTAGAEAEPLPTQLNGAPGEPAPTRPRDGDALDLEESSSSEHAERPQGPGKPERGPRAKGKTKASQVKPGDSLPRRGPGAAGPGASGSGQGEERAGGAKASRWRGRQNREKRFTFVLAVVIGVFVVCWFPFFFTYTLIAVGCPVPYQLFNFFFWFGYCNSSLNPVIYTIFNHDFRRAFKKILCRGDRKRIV

With `COc1cc2nc(N3CCN(C(=O)[C@@H]4CCCO4)CC3)nc(N)c2cc1OC` [S(-), S(-)-2-[4-[(tetrahydro-2-furanyl)carbonyl]-1-piperazinyl]-6,7-dimethoxy-4-quinazolinamine] the Kb (1.0 μmolar concentration) was 1480 nM and 1120 nM and the Kb (3 μmolar concentration) was 1580 nM and 1020 nM.
